Experimental data as given in article PMC12293736, “Discovery of N-(6-Methoxypyridin-3-yl)quinoline-2-amine Derivatives for Imaging Aggregated α-Synuclein in Parkinson’s Disease with Positron Emission Tomography” (Cells, 2025).

Biological target: PD brain tissues (Homo sapiens, UniProt P37840)
Experiment: homologous competitive binding assay of radiotracers, PD tissue
Conditions: tested as the radiolabelled form

COc1ccc(Nc2ccc3cc(OC/C=C/I)ccc3n2)cn1 [Compound 8i]
Kd (read-out: Kd, high affinity binding site, PD tissues, two-site binding): 1.4 nM
Kd (read-out: Kd, low affinity binding site, PD tissues, two-site binding): 200 nM
Ki (read-out: Ki, PD tissues, tritiated radioligand at 0.808 nM concentration): 5.4 nM
Bmax, high affinity binding site, PD tissues (two-site binding): 385 nM
Bmax, low affinity binding site, PD tissues (two-site binding): 9.1 µM

Where two headings read alike, the source gives them in different places.
